Results on 1 molecule are retold here after ChEMBL document CHEMBL1147596, “Subtype selective NMDA receptor antagonists: evaluation of some novel alkynyl analogues” (Bioorg Med Chem Lett, 2004).

By UniProt entry, the sequences of proteins in these tests, tags left out.
UniProt Q00960, whole entry: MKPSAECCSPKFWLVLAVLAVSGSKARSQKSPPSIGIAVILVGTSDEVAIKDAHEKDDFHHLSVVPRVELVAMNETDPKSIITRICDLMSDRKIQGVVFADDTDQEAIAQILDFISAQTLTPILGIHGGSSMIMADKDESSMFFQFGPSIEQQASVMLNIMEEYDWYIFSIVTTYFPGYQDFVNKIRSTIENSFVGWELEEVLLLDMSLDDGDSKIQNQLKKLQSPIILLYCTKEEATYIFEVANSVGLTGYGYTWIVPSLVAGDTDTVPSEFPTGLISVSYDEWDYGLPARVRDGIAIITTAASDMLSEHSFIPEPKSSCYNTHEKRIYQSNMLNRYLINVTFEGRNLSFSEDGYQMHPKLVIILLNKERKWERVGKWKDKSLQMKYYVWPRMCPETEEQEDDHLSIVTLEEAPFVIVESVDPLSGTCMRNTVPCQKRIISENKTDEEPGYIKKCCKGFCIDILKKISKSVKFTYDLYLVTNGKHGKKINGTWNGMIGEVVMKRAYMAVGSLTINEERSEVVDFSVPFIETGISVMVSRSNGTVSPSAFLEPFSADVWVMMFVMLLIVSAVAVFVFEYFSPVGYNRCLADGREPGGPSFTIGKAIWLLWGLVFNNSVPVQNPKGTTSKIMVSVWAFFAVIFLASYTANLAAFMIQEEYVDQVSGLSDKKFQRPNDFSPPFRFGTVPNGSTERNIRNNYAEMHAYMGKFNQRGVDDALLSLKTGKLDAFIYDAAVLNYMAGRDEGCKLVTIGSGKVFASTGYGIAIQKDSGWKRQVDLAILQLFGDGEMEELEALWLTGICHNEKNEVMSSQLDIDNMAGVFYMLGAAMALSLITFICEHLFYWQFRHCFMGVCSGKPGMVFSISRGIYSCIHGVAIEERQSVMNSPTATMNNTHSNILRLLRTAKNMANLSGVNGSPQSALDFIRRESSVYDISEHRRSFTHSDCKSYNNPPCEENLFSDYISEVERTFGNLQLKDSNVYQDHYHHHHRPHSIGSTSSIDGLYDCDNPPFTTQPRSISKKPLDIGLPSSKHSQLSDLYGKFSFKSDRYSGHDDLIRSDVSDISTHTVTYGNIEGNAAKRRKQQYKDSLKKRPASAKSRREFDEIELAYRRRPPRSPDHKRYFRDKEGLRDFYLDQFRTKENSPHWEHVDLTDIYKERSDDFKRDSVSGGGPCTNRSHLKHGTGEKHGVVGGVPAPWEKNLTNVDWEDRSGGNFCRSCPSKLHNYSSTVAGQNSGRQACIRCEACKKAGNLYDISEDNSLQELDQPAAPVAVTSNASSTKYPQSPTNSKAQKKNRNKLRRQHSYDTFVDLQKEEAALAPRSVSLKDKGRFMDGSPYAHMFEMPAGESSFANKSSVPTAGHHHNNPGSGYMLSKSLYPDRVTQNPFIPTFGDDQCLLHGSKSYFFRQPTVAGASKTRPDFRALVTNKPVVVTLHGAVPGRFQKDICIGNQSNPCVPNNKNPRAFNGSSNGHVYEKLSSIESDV

This assay addresses Glutamate NMDA receptor; Grin1/Grin2b (Rattus norvegicus, UniProt P35439+Q00960). Description: Binding affinity against NR1A/2B receptor in rat brains by [3H]ifenprodil displacement. The class given is tissue-based, Brain.

The IC50 is the concentration needed to halve the response being measured.

Take `Oc1nc2cc(C#CCN3CCC(Cc4ccc(F)cc4)CC3)ccc2[nH]1`: the IC50 stood at 3 nM.
